## Apparent affinities of Ab-14 variants for a coronavirus HR2 peptide

Target peptide (SARS-CoV-2 spike, HR2 region): PDVDLGDISGINAS

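The starting antibody came from a phage panning campaign against this peptide. AAYL49 was designed without a model: most single CDR substitutions and a random sample of double and triple ones. The scFvs were displayed on barcoded MATa yeast, the peptide on MATalpha yeast. The frequency of each diploid, read from paired DNA barcodes, reflects how well the two displayed proteins bind. The ratio of observed to expected reads was calibrated, replicate by replicate, on BCL2-family standards whose Kd was known from biolayer interferometry. Mating was done three times.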

The variants keep the light chain, the linker and the frameworks of Ab-14 (scFv order VH, a 15-residue (Gly4Ser)3 linker, VL).
VH: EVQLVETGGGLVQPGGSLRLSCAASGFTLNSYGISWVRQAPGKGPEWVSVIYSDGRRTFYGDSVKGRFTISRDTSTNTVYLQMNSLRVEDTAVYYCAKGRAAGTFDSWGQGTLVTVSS
VL: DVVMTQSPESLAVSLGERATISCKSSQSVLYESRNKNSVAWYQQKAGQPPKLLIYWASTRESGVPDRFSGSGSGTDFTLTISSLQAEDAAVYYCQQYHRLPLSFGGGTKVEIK

Positions count from residue 1 of the parent VH; T28W puts W in place of T.
Every variant below is changed at A101 of the VH (sequential numbering).
Values are log10 of the apparent Kd in nM; lower means stronger binding.
The mean shown is taken over the replicates in which the pair was detected.
"nd" marks a missing value. The strain was present, yet no cells mated with the target were sequenced in that replicate, which points to weak or no binding.
As a blank, each scFv also met three strains without target: over library AAYL49, 15% of these pairings were detected, typically at 4.06 and seldom below 2.83. The control count says in how many pairings with the empty strains this scFv gave a signal.

The variant T28W+Y32E+A101G gave nd, nd, nd (controls 1 of 9). The variant G33I+A101E+G103T showed nd, nd, nd (controls 0 of 9). The variant Y52V+A101D+F105P gave nd, 4.66, 5.66 (mean 5.16; controls 2 of 9). For I51S+Y60W+A101H, the assay gave nd, nd, 4.38 (controls 0 of 9). With L29I+V64N+A101G the result was nd, nd, nd (controls 0 of 9). The variant A101H+A102R+G103V showed nd, nd, nd (controls 0 of 9). With S31R+V50E+A101Y the result was nd, 4.15, nd (controls 0 of 9). The variant A101V showed 0.22, 0.46, 0.41 (mean 0.37; controls 4 of 9).

For G55I+V64N+A101R, the assay gave nd, nd, nd (controls 1 of 9). With A101N+G103V+F105C the result was 4.43, nd, nd (controls 0 of 9). The variant L29M+T58R+A101N showed 1.88, 2.33, 2.90 (mean 2.37; controls 1 of 9). For T28I+Y32N+A101I, the assay gave nd, 3.77, nd (controls 4 of 9). With Y52H+Y60T+A101K the result was nd, nd, nd (controls 6 of 9). The variant D62N+A101N showed 1.87, 1.78, 1.88 (mean 1.84; controls 1 of 9). The variant V50Q+A101F+S107L gave nd, nd, nd (controls 1 of 9). The variant F59G+A101M+T104W gave 1.97, 2.06, 2.07 (mean 2.03; controls 3 of 9).

For F27D+Y52W+A101M, the assay gave 4.38, nd, nd (controls 3 of 9). The variant S63Q+A101P+T104Q showed 1.02, 0.99, 1.26 (mean 1.09; controls 2 of 9). The variant F27N+G33V+A101L gave nd, nd, nd (controls 1 of 9). The variant F59C+A101N gave 2.70, 1.97, 2.37 (mean 2.35; controls 1 of 9). For T58D+A101E+D106R, the assay gave nd, nd, nd (controls 0 of 9). With D62H+A101T+S107N the result was nd, nd, nd (controls 0 of 9). The variant R100A+A101P gave 1.08, 1.24, 1.30 (mean 1.21; controls 3 of 9). With K65R+R100N+A101R the result was 0.24, 0.56, 0.36 (mean 0.39; controls 0 of 9).

The variant T58I+Y60L+A101M gave nd, nd, nd (controls 0 of 9). For G26T+R57Q+A101Q, the assay gave nd, nd, 4.89 (controls 0 of 9). With A101T the result was 1.43, 1.45, 1.73 (mean 1.54; controls 2 of 9). The variant Y32D+A101H gave 4.84, 5.07, 3.91 (mean 4.61; controls 0 of 9). The variant G33V+V64P+A101E showed nd, nd, nd (controls 1 of 9). The variant G99V+A101V+T104A gave 2.42, 2.24, 2.31 (mean 2.32; controls 2 of 9). For D54Q+K65M+A101F, the assay gave nd, nd, nd (controls 0 of 9). For S35V+S53Y+A101M, the assay gave nd, nd, nd (controls 0 of 9).

The variant I34W+I51G+A101V gave nd, nd, nd (controls 0 of 9). The variant F27C+Y32H+A101M gave nd, nd, nd (controls 0 of 9). The variant G55P+R57F+A101Q gave 5.25, nd, 3.70 (mean 4.48; controls 4 of 9). The variant R56Y+A101N+T104P showed 3.29, 2.84, 3.38 (mean 3.17; controls 1 of 9). For L29G+Y52E+A101R, the assay gave nd, nd, nd (controls 0 of 9). With L29C+G99Q+A101H the result was nd, nd, nd (controls 0 of 9). The variant N30G+R57Y+A101T gave 2.97, nd, nd (controls 2 of 9). For S53C+D54C+A101I, the assay gave 3.82, nd, nd (controls 1 of 9).

With I51G+A101W+A102G the result was 4.09, nd, nd (controls 2 of 9). The variant I51F+G99N+A101F showed nd, 3.73, nd (controls 0 of 9). For Y32A+R56A+A101T, the assay gave nd, nd, nd (controls 6 of 9).

Again, the first 6 entries without any signal:

With T28W+Y32E+A101G the result was nd, nd, nd (controls 1 of 9).
With G33I+A101E+G103T the result was nd, nd, nd (controls 0 of 9).
With L29I+V64N+A101G the result was nd, nd, nd (controls 0 of 9).
With A101H+A102R+G103V the result was nd, nd, nd (controls 0 of 9).
With G55I+V64N+A101R the result was nd, nd, nd (controls 1 of 9).
With Y52H+Y60T+A101K the result was nd, nd, nd (controls 6 of 9).

Reference: Engelhart et al. 2022, doi:10.1038/s41597-022-01779-4. File: FLAb, binding data.